The structures appear in SMILES notation.

The chains behind the UniProt entries cited, without tags or fusion partners. Where a name states a change or a piece, a line headed by the entry shows the natural chain unless it says otherwise.
UniProt P22894: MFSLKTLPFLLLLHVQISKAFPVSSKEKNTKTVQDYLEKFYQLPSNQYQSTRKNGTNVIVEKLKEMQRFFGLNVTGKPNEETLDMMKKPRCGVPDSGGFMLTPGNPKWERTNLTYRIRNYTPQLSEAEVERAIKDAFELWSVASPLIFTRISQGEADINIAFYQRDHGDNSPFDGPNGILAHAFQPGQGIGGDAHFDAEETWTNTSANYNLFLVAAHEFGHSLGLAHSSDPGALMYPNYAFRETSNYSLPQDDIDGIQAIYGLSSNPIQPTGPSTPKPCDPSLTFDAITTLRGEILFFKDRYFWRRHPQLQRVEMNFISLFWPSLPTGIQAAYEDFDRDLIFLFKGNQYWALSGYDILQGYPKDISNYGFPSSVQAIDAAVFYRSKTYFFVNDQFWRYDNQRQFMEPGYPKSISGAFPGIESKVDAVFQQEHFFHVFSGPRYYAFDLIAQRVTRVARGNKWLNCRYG

For this test, the target named is Neutrophil collagenase (Homo sapiens, UniProt P22894). As to the kind of experiment: Enzyme Inhibition Assay.

On to `CC(=O)Nc1ccc(Oc2ccc(S(=O)(=O)CC3CS3)cc2)cc1` (stereo unspecified) [US10357546, ND-364], for which the Ki amounted to 3.4 µM.

A word on the Ki: it is the dissociation constant of the complex between target and ligand, obtained from inhibition or displacement. The low end stands for tighter binding, the high end for weaker binding.

Values taken from BindingDB's records for patent US10357546 (University of Notre Dame Du Lac, 2019).
